The source of these data is patent US6583179B2, “Substituted aminoalkylamide derivatives as antagonists of follicle stimulating hormone” (Ortho-McNeil Pharmaceutical, Inc., priority 1999, dated 2003).

Chains of the proteins cited; added tags and fusions are not shown. Residues count along the entry.
UniProt P23945, 18-695 limits assumed: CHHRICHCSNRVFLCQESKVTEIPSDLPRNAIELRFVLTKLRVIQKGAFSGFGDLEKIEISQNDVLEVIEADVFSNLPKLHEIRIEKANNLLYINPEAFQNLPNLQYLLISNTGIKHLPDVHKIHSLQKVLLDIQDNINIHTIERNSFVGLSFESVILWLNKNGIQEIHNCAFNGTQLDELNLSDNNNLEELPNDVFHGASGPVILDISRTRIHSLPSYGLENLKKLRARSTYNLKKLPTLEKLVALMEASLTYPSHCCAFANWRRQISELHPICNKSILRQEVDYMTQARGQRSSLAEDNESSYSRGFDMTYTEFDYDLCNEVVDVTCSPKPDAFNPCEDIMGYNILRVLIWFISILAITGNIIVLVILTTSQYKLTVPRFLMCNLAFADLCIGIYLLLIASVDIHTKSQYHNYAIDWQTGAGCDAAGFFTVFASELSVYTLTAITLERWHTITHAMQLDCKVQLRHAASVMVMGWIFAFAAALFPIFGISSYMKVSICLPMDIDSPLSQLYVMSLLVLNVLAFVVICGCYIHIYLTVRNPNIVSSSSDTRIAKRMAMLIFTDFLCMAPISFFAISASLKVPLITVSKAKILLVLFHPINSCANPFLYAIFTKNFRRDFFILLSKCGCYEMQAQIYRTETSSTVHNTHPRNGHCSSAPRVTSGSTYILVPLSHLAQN

Each structure is given as a SMILES string.

The target in one experiment is human FSH receptor (Homo sapiens, UniProt P23945). Put plainly: hFSHR CHO cAMP assay (rhFSHR-cLUC cells, FSH-stimulated cAMP, radioimmunoassay). Particulars: read-out: EC50 hFSHR CHO cAMP; inhibition of cAMP produced by EC70 dose of FSH (4.85 nM); maximum concentration 50 μM.
A further experiment concerns Rat Granulosa Cell. Put plainly: Rat granulosa cell FSH-stimulated cAMP production. The following applies: read-out: Rat Granulosa Cell EC50 cAMP; inhibition of cAMP produced by EC70 dose of FSH (1.4 nM); maximum concentration 50 μM. In general terms: Changes in cAMP serve as a functional read-out for many G protein-coupled receptors.

The EC50 is the concentration at which the effect is half-maximal. For the compound `C[C@@H](CN(CC(=O)NCc1ccc(CN)cc1)S(=O)(=O)c1ccc(-c2cccc(Cl)c2)cc1)c1ccccc1` [199], the EC50 amounted to 830 nM on human FSH receptor and 60 nM with Rat Granulosa Cell.

For the compound `COc1ccccc1CN(CC(=O)NCC1CCC(CN)CC1)S(=O)(=O)c1ccccc1C(F)(F)F` (centres unmarked), the EC50 on human FSH receptor came to 6460 nM; in the experiment on Rat Granulosa Cell, 1450 nM.

In the case of `COc1cccc(CN(CC(=O)NCC2CCC(CN)CC2)S(=O)(=O)c2ccc(-c3ccc(C)cc3)cc2)c1` (centres unmarked), the EC50 at human FSH receptor was determined as 1410 nM; in the experiment with Rat Granulosa Cell, 1330 nM.

As to `COc1ccccc1CN(CC(=O)NCC1CCC(CN)CC1)S(=O)(=O)c1cc(Cl)cc(Cl)c1` (centres unmarked), the EC50 was 25000 nM on human FSH receptor and 3010 nM in the experiment with Rat Granulosa Cell.

Regarding `COc1ccccc1CN(CC(=O)NCC1CCC(CN)CC1)S(=O)(=O)c1ccccc1[N+](=O)[O-]` (centres unmarked), the EC50 on human FSH receptor was at least 50000 nM; with Rat Granulosa Cell, 7510 nM.

With `COc1ccccc1CN(CC(=O)NCC1CCC(CN)CC1)S(=O)(=O)c1ccc(Cl)cc1Cl` (centres unmarked), the EC50 at human FSH receptor turned out to be 31300 nM; in the experiment with Rat Granulosa Cell, 2060 nM.

As for `COc1ccccc1CCN(CC(=O)N[C@H]1CC[C@H](N)CC1)S(=O)(=O)c1ccc(-c2ccc(Cl)cc2)cc1`, the EC50 is 9700 nM at human FSH receptor and 1900 nM in the experiment on Rat Granulosa Cell.

For the compound `COc1ccccc1CCN(CC(=O)NCC1CCC(CN)CC1)S(=O)(=O)c1ccc(-c2ccc(Cl)cc2Cl)cc1` (centres unmarked), the EC50 stood at 310 nM on human FSH receptor and 170 nM in the experiment with Rat Granulosa Cell.

For the compound `COc1ccccc1CN(CC(=O)NCC1CCC(CN)CC1)S(=O)(=O)c1ccc(Cl)cc1` (centres unmarked), the EC50 on human FSH receptor stood at 4370 nM; in the experiment with Rat Granulosa Cell, 550 nM.

For the compound `COc1ccc(-c2ccc(S(=O)(=O)N(CC(=O)NCC3CCC(CN)CC3)Cc3ccccc3OC)cc2)cc1` (centres unmarked), the EC50 on human FSH receptor was 1060 nM; with Rat Granulosa Cell, 470 nM.

Take `COc1ccccc1CCN(CC(=O)NCc1ccc(CN)cc1)S(=O)(=O)c1cccc([N+](=O)[O-])c1`: the EC50 on human FSH receptor came out at 1020 nM; in the experiment with Rat Granulosa Cell, 1440 nM.

For the compound `COc1ccccc1CN(CC(=O)NCC1CCC(CN)CC1)S(=O)(=O)c1ccc(OC)c(OC)c1` (centres unmarked), the EC50 on human FSH receptor worked out at 28500 nM; in the experiment on Rat Granulosa Cell, 2070 nM.

With `C[C@H](CN(CC(=O)NCCCCCCN)S(=O)(=O)c1ccc(-c2ccccc2Cl)cc1)c1ccccc1`, the EC50 on human FSH receptor amounted to 160 nM; in the experiment on Rat Granulosa Cell, 30 nM.

Consider `COc1ccc(S(=O)(=O)N(CC(=O)NCC2CCC(CN)CC2)Cc2ccccc2OC)cc1C` (centres unmarked), for which the values for the EC50 on human FSH receptor and with Rat Granulosa Cell were at least 50000 nM and 25700 nM, respectively.

As for `COc1ccccc1CCN(CC(=O)NCc1ccc(CN)cc1)S(=O)(=O)c1cccc(F)c1`, the EC50 on human FSH receptor was 1410 nM; in the experiment on Rat Granulosa Cell it was 1350 nM.

As to `COc1ccccc1CCN(CC(=O)NCc1ccc(CN)cc1)S(=O)(=O)c1cccc(Cl)c1`, the EC50 was 3630 nM at human FSH receptor and 1160 nM in the experiment with Rat Granulosa Cell.
